Earlier results as cited in publication PMC10290130, “The potential of phenothiazinium dyes as cytotoxicity markers in cisplatin-treated cells” (Scientific Reports, 2023).

Tested on: Vero cells
Settings: read-out: IC50 (cytotoxicity); 72 h of incubation; cited from earlier work

Structure (SMILES): CN(C)c1ccc2nc3ccc(=[N+](C)C)cc-3sc2c1 [MB, 3,7-bis[dimethylamino]phenothiazin-5-ium chloride]
- IC50: > 62.5 µM
